The values that follow come from paper PMC3103057 (Journal of medicinal chemistry, 2011).

The test deals with wildtype and homozygous mutant N370S GC fibroblasts. Briefly: Chaperone activity: translocation of GC to the lysosome in fibroblasts. The test is classed as cell-based, human.

Molecules are shown by their SMILES.

For `Cc1ccc(S(=O)(=O)N2CCN(c3ncnc4ccccc34)CC2)cc1` [Compound 62, 4-(4-Tosylpiperazin-1-yl)quinazoline], the “amount of GC localized to the lysosome” value is listed as “clear increase of the amount of GC localized to the lysosome”.
